{"source": "patent US7495116B2", "about": "“Phospholipid derivative” (NOF Corporation, priority 2002, dated 2009)", "test": "Determination of salt tolerant effect (clouding point, evaluation as surfactant)", "format": "physicochemical", "conditions": "1 weight % solution in 5 weight % aqueous sodium sulfate", "protocol": "Clouding point of the polyoxyethylene pentaerythritol ether (average molecular weight: 2000)-mono-distearoylphosphadylethanolamine obtained in Synthesis Example 1 was measured for a 1 weight % solution in 5 weight % aqueous sodium sulfate. As a result of the measurement, the clouding point was not detectable even when the temperature was raised up to 80° C.\nClouding point of the monomethylpolyoxyethylenecarbamyl (molecular weight: 2000) distearoylphosphatidylethanolamine obtained in Comparative Synthesis Example 1 was measured in the same manner as in Example 3.", "data": [{"substance": "Polyoxyethylene Pentaerythritol Ether (Average Molecular Weight: 2000)-mono-distearoylphosphadylethanolamine Succinate [Synthesis Example 1]", "values": [{"measurement": "Clouding point", "value": "> 80", "unit": "°C"}]}]}
